Our source for the IC50 values is ChEMBL document CHEMBL1135762, “Chiral N,N-disubstituted trifluoro-3-amino-2-propanols are potent inhibitors of cholesteryl ester transfer protein” (J Med Chem, 2002).

The assay addresses T1, Cholesteryl ester transfer protein (Homo sapiens, UniProt P11597).
T1 sequence (P11597 whole entry): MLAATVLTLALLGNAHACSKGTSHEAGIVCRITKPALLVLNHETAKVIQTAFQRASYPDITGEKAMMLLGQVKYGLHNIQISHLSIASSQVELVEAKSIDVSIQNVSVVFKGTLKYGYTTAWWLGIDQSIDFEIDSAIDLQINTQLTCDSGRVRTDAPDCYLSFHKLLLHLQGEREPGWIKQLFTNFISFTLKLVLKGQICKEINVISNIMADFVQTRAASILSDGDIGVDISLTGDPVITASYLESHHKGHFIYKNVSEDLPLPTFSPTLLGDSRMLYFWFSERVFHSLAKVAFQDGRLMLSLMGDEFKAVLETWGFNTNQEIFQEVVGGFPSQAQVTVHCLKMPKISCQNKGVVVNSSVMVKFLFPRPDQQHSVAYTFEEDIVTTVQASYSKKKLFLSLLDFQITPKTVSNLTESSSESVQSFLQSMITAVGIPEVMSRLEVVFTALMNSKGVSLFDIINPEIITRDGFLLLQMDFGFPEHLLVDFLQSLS
Description: Concentration required for 50% Inhibition against Cholesteryl ester transfer protein in presence of human serum.

By IC50 is commonly meant the concentration at which inhibition is half-maximal. With `OC(CN(Cc1cccc(OC(F)(F)F)c1)c1cccc(OC(F)(F)F)c1)C(F)(F)F` (stereo unspecified), the IC50 is 46 µM.
